Test system: B. megaterium SR7
Experiment: Biolog GenIII sole carbon source growth
Assay type: cell-based, Bacillus megaterium
Details: Table 11
Description: Plates were incubated at 37° C. on a plate shaker at 200 rpm and assayed for growth using NADH-dependent colorimetric changes measured by OD490 on a microplate reader (BioTek Synergy 2; BioTek; Winooski, Vt.).

O=C(O)CCC(=O)C(=O)O [α-Keto-Glutaric Acid]
+: Growth in carbon source Biolog plate, +Metals (trace metals-amended plate) | Growth in carbon source Biolog plate, I (unamended plate trial I) | Growth in carbon source Biolog plate, II (unamended plate trial II)
